## Apparent affinities of Ab-95 variants for a coronavirus HR2 peptide

The target is the same throughout: PDVDLGDISGINAS, from the HR2 region of SARS-CoV-2 spike.

Parent scFv Ab-95: VH joined to VL by a 15-residue (Gly4Ser)3 linker. Changes lie in the light chain CDRs alone.
VH: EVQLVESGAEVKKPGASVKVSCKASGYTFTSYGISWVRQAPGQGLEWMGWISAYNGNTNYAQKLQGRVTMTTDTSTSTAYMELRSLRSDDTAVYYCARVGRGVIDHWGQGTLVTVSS
VL: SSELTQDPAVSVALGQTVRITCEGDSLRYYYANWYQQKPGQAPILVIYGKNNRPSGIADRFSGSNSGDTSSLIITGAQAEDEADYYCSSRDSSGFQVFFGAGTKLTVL

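The starting antibody came from a phage panning campaign against this peptide. The library (AAYL52) carries one to three amino acid substitutions per variant, with no insertions or deletions. Affinity was read by AlphaSeq, a pooled yeast mating assay with surface-displayed partners. The frequency of each diploid, read from paired DNA barcodes, reflects how well the two displayed proteins bind. Read counts were normalised to the haploid input and turned into Kd by a linear fit to BCL2-family pairs of known affinity, for each replicate. There are three technical replicates.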

Positions count from residue 1 of the parent VL; R53P puts P in place of R.
Values are log10 of the apparent Kd in nM; lower means stronger binding.
Averages over replicates are reported, and they cover detected replicates only.
"not detected" means that the variant was in the library but no mating with the target was seen in any replicate; the authors take this as a sign of poor binding, and no number exists.
In this assay the parent's reference entry averaged 2.31; its copy inside this library read 2.25.
Nonspecific signal, from three strains lacking the peptide, appeared in 28% of pairings of library AAYL52, centred on 3.91 (5% of these signals below 2.90); values are not corrected for it.

| changes | mean, log10 nM | replicates with signal |
|---|---|---|
| R53P+S88D+R90E | not detected | 0/3 |
| Y29Q+N33H+S55H | 3.14 | 3/3 |
| L27W+N51R+S88K | 3.12 | 1/3 |
| E23C+S26C+Y31E | 2.27 | 3/3 |
| L27I+N52L+G94Y | 3.86 | 1/3 |
| R28L+R53Y+S88G | 3.25 | 3/3 |
| R28I+N52Y+P54E | 3.73 | 3/3 |
| E23S+S88M+S89Y | 4.53 | 2/3 |
| D25N+A32Q+D91A | 4.79 | 1/3 |
| P54M+S93Y+G94I | 4.71 | 2/3 |
| E23H+K50L+V97H | 4.87 | 2/3 |
| S26V+N51C+R90G | 3.87 | 1/3 |
| N33W+G49R+S55K | not detected | 0/3 |
| Y29H+G49L+D91I | 3.34 | 3/3 |
| S89M+S93K+G94L | 3.39 | 1/3 |
| L27N+Y30P+G94F | 3.31 | 2/3 |
| K50T+S88E+G94D | 2.97 | 2/3 |
| P54T+S88T+S89C | not detected | 0/3 |
| S26G+L27V+S89E | 4.01 | 1/3 |
| Y29N+D91Y+S92E | 4.87 | 2/3 |
| S26R+L27N+Y31T | 4.44 | 3/3 |
| R28W+R90C+G94H | 4.55 | 1/3 |
| Y31W+N52Q+Q96L | 3.67 | 3/3 |
| N33W+R53V | 4.02 | 3/3 |
| D25C+F95W+V97Y | not detected | 0/3 |
| N52C+S55E+G94Q | 3.27 | 3/3 |
| R28A+G49L+R53Y | 4.28 | 1/3 |
| E23I+G49F+F95I | 4.39 | 2/3 |
| L27V+S55L+G94M | 3.32 | 1/3 |
| D25F+Y31I | 3.47 | 2/3 |
| Y31T+R90S+S93D | 4.57 | 1/3 |

Continued, with the values leading:

| mean, log10 nM | replicates with signal | changes |
|---|---|---|
| 3.75 | 1/3 | D25K+S26Y+S55W |
| 3.09 | 3/3 | G24H+R28T+F98H |
| not detected | 0/3 | D25W+Y31K+D91W |
| 5.35 | 1/3 | G49P+S92H+S93H |
| 2.94 | 2/3 | R90M+D91K+Q96A |
| 4.17 | 1/3 | L27N+G49K+K50I |
| 3.24 | 3/3 | D25P+R90C |
| 4.46 | 2/3 | R28L+N33K+N51H |
| 3.92 | 1/3 | G24Y+G49W+S92R |
| not detected | 0/3 | D25V+N33G+R53N |
| 4.12 | 2/3 | R53T+R90K+F95K |
| not detected | 0/3 | D25V+N33L+G49Y |
| 4.40 | 2/3 | A32E+N33A+S93Q |
| 3.26 | 3/3 | G24N+Y31M+K50N |
| 2.65 | 3/3 | E23K+S55E+F95G |
| 3.66 | 1/3 | N33D+D91S+F98Q |
| 3.72 | 3/3 | K50A+S92D+Q96R |
| not detected | 0/3 | A32F+S55D+G94V |
| 4.23 | 2/3 | P54W+S88T+F95W |
| 3.43 | 3/3 | Y30L+P54A+S55W |
| 4.21 | 1/3 | G49Q+D91V+V97P |
| 1.44 | 3/3 | Y30T+N51G+S92F |
| not detected | 0/3 | G24C+Y30T+D91Y |
| 3.93 | 2/3 | Y29K+A32M+V97A |
| 2.05 | 3/3 | Y29W+S55Q+S88E |
| 2.90 | 3/3 | G24R+K50Q+S89G |
| 2.05 | 3/3 | Q96Y+V97W+F98N |
| 4.19 | 3/3 | Y31W+A32S+S89E |
| 2.64 | 3/3 | S26Y+D91P+G94P |
| 3.37 | 2/3 | D25R+P54H+S55L |
| 3.96 | 2/3 | D25A+Y31P+G49Y |
| not detected | 0/3 | G24T+L27W+R28A |

The measurements come from Engelhart et al. 2022 (doi:10.1038/s41597-022-01779-4) through the FLAb antibody collection.